Source: US8492564B2 (priority 2008, dated 2013)

Biological target: hKOPR (Homo sapiens (Human), UniProt P41145)
Type: biochemical

Compound | Efficacy (Percent of the maximal effect of U50,488H) | agonist properties in the [35S]GTPγS assay | effect on [35S]GTPγS binding induced by U50,488
COC(=O)[C@@H]1C[C@H](OC(C)=O)C(=O)[C@H]2[C@@]1(C)CC[C@H]1C(=O)O[C@H](c3ccoc3)C[C@]21C [Salvinorin A, salvinorin A] | 105 ± 4% |  | 
COC(=O)[C@@H]1C[C@H](OC(C)=O)C(=O)[C@H]2[C@@]1(C)CCC1C(=O)O[C@@H](c3ccoc3)C[C@@]12C (stereo partly drawn) [Compound 6, 12-epi-salvinorin A] | 67 ± 5% | partial agonist properties | significantly reduced
